AlphaSeq binding of Ab-14 light chain variants to a spike HR2 peptide

Reference: Engelhart et al. 2022, doi:10.1038/s41597-022-01779-4. File: FLAb, binding data.

Binding partner: SARS-CoV-2 spike HR2 peptide, sequence PDVDLGDISGINAS.

Parent scFv Ab-14: VH joined to VL by three GGGGS repeats. Changes lie in the light chain CDRs alone.
VH: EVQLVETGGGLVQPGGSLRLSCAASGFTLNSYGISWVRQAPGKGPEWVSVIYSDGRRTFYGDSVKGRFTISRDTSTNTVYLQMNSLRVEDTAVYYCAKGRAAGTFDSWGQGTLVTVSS
VL: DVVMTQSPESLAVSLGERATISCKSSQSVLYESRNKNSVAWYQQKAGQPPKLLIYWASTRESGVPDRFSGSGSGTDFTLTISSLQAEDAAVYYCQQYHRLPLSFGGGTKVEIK

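The starting antibody came from a phage panning campaign against this peptide. The library (AAYL50) carries one to three amino acid substitutions per variant, with no insertions or deletions. The scFvs were displayed on barcoded MATa yeast, the peptide on MATalpha yeast. The frequency of each diploid, read from paired DNA barcodes, reflects how well the two displayed proteins bind. Each replicate has its own calibration line, from reference interactions of the BCL2 family. Mating was done three times.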

Changes read parent residue, position, new residue, counted from the first residue of the VL shown.
Numbers give log10(Kd / nM), so 0 is 1 nM and 3 is 1 µM. Smaller is tighter.
Replicates are averaged; those with no signal do not enter the mean.
Where no diploid with the target was found in that replicate, the entry reads "nd": below detection, most likely a poor binder, though not proof of it.

changes,log10 Kd (nM) by replicate,"log10 Kd (nM), mean",signal with controls
N37M/E61T,2.15 2.07 2.39,2.20,4 of 9 (4.04)
S38T/R99S/P101V,4.94 nd nd,4.94,3 of 9 (4.21)
N35G/K36L,0.39 0.70 0.46,0.52,0 of 9
E32H/S33Q/W56G,0.23 0.50 0.37,0.37,7 of 9 (5.29)
S33Y/R34M/S38E,2.58 2.19 2.92,2.56,0 of 9
L30W/E32P,0.76 0.88 0.75,0.80,2 of 9 (3.41)
S28R/K36Q/Q96L,nd nd nd,nd,1 of 9 (2.97)
K24F/R34P/Y97H,2.41 2.85 2.42,2.56,0 of 9
S25I/K36L/H98Y,1.05 1.00 1.05,1.03,6 of 9 (4.70)
R34V/S62K/Q95I,nd nd nd,nd,1 of 9 (3.29)
R34C/E61G/S103G,2.82 2.52 2.85,2.73,0 of 9
A57D/Q96G,1.46 1.68 1.54,1.56,2 of 9 (3.85)
S28I/Q95K/R99A,nd nd nd,nd,0 of 9
V39S/S58I/T59G,nd nd nd,nd,0 of 9
S25E/A40W/A57D,nd 3.43 nd,3.43,5 of 9 (4.41)
K24C/S28E/R34P,4.82 nd nd,4.82,4 of 9 (3.55)
V39G,nd 4.16 nd,4.16,3 of 9 (4.48)
S62V/H98P/L100K,nd 4.58 3.83,4.21,0 of 9
S26C/H98F/R99C,nd nd 4.18,4.18,2 of 9 (4.32)
S38V/A57E/T59C,nd nd 5.84,5.84,0 of 9
S26H/N35Y/S103P,2.69 3.79 3.80,3.43,1 of 9 (3.07)
S26F/A40D/Q96Y,4.85 nd nd,4.85,1 of 9 (4.33)
S33V/S58G/L100Y,nd nd nd,nd,1 of 9 (3.10)
L30Y/T59I,0.66 0.85 0.95,0.82,1 of 9 (3.67)
K36R/L100R,3.45 nd 3.32,3.38,3 of 9 (3.83)
N35Y/N37Q/Y97I,nd nd nd,nd,0 of 9
R60T/L100E/S103W,nd nd nd,nd,0 of 9
E32Y/N37I/A57E,3.52 3.49 nd,3.51,0 of 9
E32I/N37E/W56R,2.79 1.72 2.29,2.27,1 of 9 (4.63)
S33T/N35K/V39S,nd 3.56 nd,3.56,2 of 9 (4.33)

Again, the first 2 entries without any signal:

changes,log10 Kd (nM) by replicate,"log10 Kd (nM), mean",signal with controls
S28R/K36Q/Q96L,nd nd nd,nd,1 of 9 (2.97)
R34V/S62K/Q95I,nd nd nd,nd,1 of 9 (3.29)

Three control strains display no target. For library AAYL50, 18% of the pairings with them gave a signal, with a median of 4.19 and one signal in twenty below 2.99, so weak values seen in few replicates may be background. The control count says in how many pairings with the empty strains this scFv gave a signal, with their mean in brackets.
In this assay the parent's reference entry averaged 0.65; its copy inside this library read 1.68.